Experimental findings from patent publication US12391677B2, “Thyroid hormone receptor agonists” (INVENTISBIO CO., LTD., priority 2018, dated 2025) are described below.

Protein sequences, listed by entry. Tags and fused reporters are not part of them. Lines headed by an entry give the natural chain unless they say otherwise; changes in a name come on top. Residues count along the entry.
UniProt P10828, 217-461 limits assumed: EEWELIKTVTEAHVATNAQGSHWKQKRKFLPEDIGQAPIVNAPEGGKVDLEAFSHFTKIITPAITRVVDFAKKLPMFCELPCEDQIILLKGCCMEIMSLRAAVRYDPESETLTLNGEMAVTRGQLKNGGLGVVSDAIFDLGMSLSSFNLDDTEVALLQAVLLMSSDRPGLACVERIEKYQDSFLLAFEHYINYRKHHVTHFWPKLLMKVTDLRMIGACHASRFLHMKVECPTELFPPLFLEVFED

The target in data set [1] is ligand binding domain of thyroid hormone receptor beta (Homo sapiens (Human), UniProt P10828). The data set is described as follows: Thyroid hormone receptor TR-FRET binding assay (TRβ LBD). As to conditions: read-out: TRβ EC50, TRβ LBD 2 nM. (In TR-FRET formats the signal depends on donor and acceptor labels being close together.)
The target of data set [2] is TRβ-GAL4 binding domain chimeric receptors (Homo sapiens (Human), UniProt P10828). The data set is described as follows: Thyroid hormone receptor cell assay (GAL4 luciferase reporter in HEK293-LUC cells). The data set is classed as cell-based. As to conditions: read-out: TRβ EC50. (In general: In a reporter assay the amount or activity of a reporter protein is the signal.)

Data set [3] is described as follows: Human hepatocyte clearance study. Particulars: human hepatocytes.

Structures are written as SMILES.

Regarding `N#Cc1nn(-c2cc(Cl)c(Oc3cc(Cc4ccccc4)c(=O)[nH]n3)c(Cl)c2)c(=O)[nH]c1=O`, in data set [1], the EC50 (in general, the concentration at which the effect is half-maximal) is 0.64 µM. In addition, the EC50 in data set [2] was determined as 12.5 µM. Moreover, in data set [3], the “Human In vitro Clint” value came to 4.11 μL/min/10^6 cells and the “Human In vitro T1/2” value was 5.62 h. In data set [3] (120 min), the “Human Hepatocyte Remaining Percentage @ 120 min” value stood at 76%. In addition, the “Human Scale-up Clint” value in data set [3] (scaling factor 2544.3) was 10.5 mL/min/kg.
